Experiment [1] concerns the target T1, neutrophil elastase (Homo sapiens (Human), UniProt P08246). In words: biochemical.
Experiment [2] addresses T1, neutrophil elastase. Put plainly: biochemical. This is another data set of the same source.

Amino acid sequences for entries named in this document (tags omitted). A change or cut given only in a name is not applied to a line headed by its entry.
UniProt P08246: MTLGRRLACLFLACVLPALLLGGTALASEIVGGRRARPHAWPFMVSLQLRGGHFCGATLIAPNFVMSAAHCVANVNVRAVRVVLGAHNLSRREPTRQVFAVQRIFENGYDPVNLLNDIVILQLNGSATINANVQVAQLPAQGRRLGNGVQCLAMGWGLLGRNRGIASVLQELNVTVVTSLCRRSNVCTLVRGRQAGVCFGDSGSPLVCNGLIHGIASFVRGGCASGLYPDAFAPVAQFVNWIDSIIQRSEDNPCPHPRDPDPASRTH

Like-named read-outs stand apart in the source and are kept apart here. A value given as a limit tells only on which side of the number the result lay.

We go through five compounds from patent US9475779B2, “Substituted bicyclic dihydropyrimidinones and their use as inhibitors of neutrophil elastase activity” (priority 2014, dated 2016).

As a reminder, the EC50 is the midpoint of the concentration-response curve. A higher EC50 goes with a need for much substance. For orientation: IC50 means the concentration that inhibits the measured activity by half.

Take `CC[S+]([O-])c1cc(C#N)ccc1C1C2=C(CCC2=O)N(c2cccc(C(F)(F)F)c2)C(=O)N1C` (single isomer, unassigned) [Example C.5.1, 3-Ethanesulfinyl-4-[3-methyl-2,5-dioxo-1-(3-trifluoromethyl-phenyl)-2,3,4,5,6,7-hexahydro-1H-cyclopentapyrimidin-4-yl]-benzonitrile]: in experiment [1], the EC50 amounted to 2 nM.

Compound `CC[S+]([O-])c1cc(C#N)ccc1C1C2=C(CCC2=O)N(c2cccc(C(F)(F)F)c2)C(=O)N1C` (single isomer, unassigned) [Example C.5.2, 3-Ethanesulfinyl-4-[3-methyl-2,5-dioxo-1-(3-trifluoromethyl-phenyl)-2,3,4,5,6,7-hexahydro-1H-cyclopentapyrimidin-4-yl]-benzonitrile] returned an EC50 in experiment [1] of 1 nM.

In experiment [2] (IC50, Neutrophil Elastase assay, substrate MeOSuc-Ala-Ala-Pro-Val-AMC), `CN1C(=O)N(c2ccnc(C(F)(F)F)c2)C2=C(C(=O)CC2)C1c1ccc(C#N)cc1S(C)(=O)=O` (single isomer, unassigned) [Example D.1A, 3-Methanesulfonyl-4-[3-methyl-2,5-dioxo-1-(2-trifluoromethyl-pyridin-4-yl)-2,3,4,5,6,7-hexahydro-1H-cyclopentapyrimidin-4-yl]-benzonitrile] returned an IC50 of 2.6 nM. This compound yielded an EC50 in experiment [1] of 1 nM.

With `CC(O)c1cc(C#N)ccc1C1C2=C(CCC2=O)N(c2cccc(C(F)(F)F)c2)C(=O)N1C` (stereo not shown) [Example A.3, 3-(1-Hydroxy-ethyl)-4-[3-methyl-2,5-dioxo-1-(3-trifluoromethyl-phenyl)-2,3,4,5,6,7-hexahydro-1H-cyclopentapyrimidin-4-yl]-benzonitrile], the half-maximal inhibitory concentration (IC50) in experiment [2] (read-out: IC50) is under 1 nM. Besides, it took 1 nM to reach a half-maximal effect in experiment [1] (EC50).

Regarding `CN1C(=O)N(c2ccnc(C(F)(F)F)c2)C2=C(C(=O)CC2)C1c1ccc(C#N)cc1S(C)(=O)=O` (stereo not shown) [Example D.1B, 3-Methanesulfonyl-4-[3-methyl-2,5-dioxo-1-(2-trifluoromethyl-pyridin-4-yl)-2,3,4,5,6,7-hexahydro-1H-cyclopentapyrimidin-4-yl]-benzonitrile], the IC50 in experiment [2] (Neutrophil Elastase assay, substrate MeOSuc-Ala-Ala-Pro-Val-AMC, read-out: IC50) was 19 nM.
